Test: Efflux ratio of permeability across basolateral to apical side over apical to basolateral side in human Caco-2 cells incubated for 2 hrs by LC-MS/MS analysis
Conditions: caco-2, 2 h

Brc1cc(Br)cc([C@H]2C[C@@H](CN3CCCC3)N2Cc2ccccc2Br)c1
Ratio: < 1
